# Laboratory results as given in PubChem BioAssay AID720536 (National Center for Advancing Translational Sciences (NCATS), 2013).
# The entries are a selection whose mix differs from that of the whole data set. Inconclusive results are not listed. Activity calls are given as the source filed them. The call rests on the fitted dose curve; in most records, active means well fitted inhibition curve with a large enough effect; inconclusive means small, poorly fitted or top-dose-only effect; inactive means no such curve, though single readings can be large or run the other way.
# Experiment: qHTS for Inhibitors of TGF-b: CCL64 Cells Orthogonal Assay for Cherry Picks; further: nearly all actives have a fitted effect of over 65% in size
# Conditions: CCL64 CAGA-GFP reporter, TGF-b stimulated, GFP fluorescence, 18 h
# From the text: TGF-b is a main component in the TGF-b signaling pathway which plays diverse roles in cellular and development pathways. TGF-b is the mediated by the transcription factors Smads. Although the Smad-dependent pathway is the primary canonical TGF-b signaling node, TGF-b1 can also activate alternative signaling pathways, including those involving MAPK (ERK, JNK and p38). This interaction may mediate or enhance Smad-dependent responses, or can exert Smad-independent effects. The complexity of this signaling cascade allows the TGF-b superfamily to perform unique, overlapping or redundant functions. […] We aim to identify Smad3-small molecule antagonists using a quantitative high throughput screening (qHTS) approach. […]
# Suspensions of trypsinized CCL64 CAGA-GFP cells were dispensed into white, tissue culture-treated, solid 1536-well plates at 5uL/well (1000 cells/well final concentration) in DMEM medium supplemented with 1% FBS. […] The plates were measured on an Acumen eX3 Explorer plate reader for GFP fluorescence (ex488/em500-530). GFP values were calculated by determining the mean GFP fluorescence of individual cells, and compiling these values for each well to determine a total well GFP signal. The %Activity was determined from the corrected fluorescence values. […] Concentration-response curves were fitted to the signals arising from the resulting fluorescence. […]
# Potency means the concentration at half of the fitted maximal effect.
row,Structure (SMILES),Potency
1,O=c1c2cc([N+](=O)[O-])ccc2[nH]c2c([N+](=O)[O-])cc([N+](=O)[O-])cc12,active: 5.17 µM
